Results from patent publication US20170008959A1 (AbbVie / Abbott, published 2017).

Target: T1, sRAGE-6×HIS (AA 23-352, NP_001127) (human, UniProt Q15109 23-331)
T1 construct: range 23-352; Printed as a fusion protein with limits 23-352 on NP_001127; also called human sRAGE-6×HIS; RAGE receptor; not shown: 6×HIS tag
Experiment: AlphaScreen, biotinylated peptide and sRAGE-6×HIS
Method: The entire homogeneous assay was carried out in 25 mM HEPES, 100 mM NaCl of pH 7.4 and 0.1% BSA in a volume of 20 μl.
The individual components were brought together in a defined time sequence. […] The various amounts of peptide were then added in order, after a further 30 minutes, to add the donor beads. After a further 60 minutes, the fluorescence was measured in the AlphaQuest instrument from Perkin-Elmer with a time lag of one second. Each measured point was determined as triplicate. The analysis and graphical workup of the results took place with the GraphPrism 4.0 software package.

B1: NtermR31 (peptide)
peptide: QNITARIGEPLVLKCKGAPKKPPQRLEWKLN
modifications: biotinylated (position not given) in the ELISA of embodiment 1 and in the AlphaScreen assay; unlabelled in dot blot, AP-Nogo66 competition and ACR assay
notes: also called Nterm 31; Nterm31
For B1, the EC50 was 62 nM.
